pIC50: −log10 of the molar value.
Columns and labels:
[1] = target: unphosphorylated VEGF-R2Δ50 (Homo sapiens, UniProt P35968, DEL940-989/E990V); assay: VEGF-R2 coupled spectrophotometric assay, unphosphorylated construct (FLVK); conditions: % inhibition at 50 nM compound
Text: This construct determines the ability of a test compound to inhibit tyrosine kinase activity. A construct (VEGF-R2Δ50) of the cytosolic domain of human vascular endothelial growth factor receptor 2 (VEGF-R2) lacking the 50 central residues of the 68 residues of the kinase insert domain was expressed in a baculovirus/insect cell system. Of the 1356 residues of full-length VEGF-R2, VEGF-R2Δ50 contains residues 806–939 and 990–1171, and also one point mutation (E99OV) within the kinase insert domain relative to wild-type VEGF-R2. Autophosphorylation of the purified construct was performed by incubation of the enzyme at a concentration of 4 μM in the presence of 3 mM ATP and 40 mM MgCl2 in 100 mM HEPES, pH 7.5, containing 5% glycerol and 5 mM DTT, at 4° C. for 2 h. […] See Parast et al., Biochemistry, 37,16788–16801 (1998).
(§1) The production of ADP from ATP that accompanies phosphoryl transfer was coupled to oxidation of NADH using phosphoenolpyruvate (PEP) and a system having pyruvate kinase (PK) and lactic dehydrogenase (LDH). The oxidation of NADH was monitored by following the decrease of absorbance at 340 nm (e340=6.22 cm^−1 mM^−1) using a Beckman DU 650 spectrophotometer. […] Ki values were determined by measuring enzyme activity in the presence of varying concentrations of test compounds. The data were analyzed using Enzyme Kinetic and Kaleidagraph software.

Sequences of proteins named here, by UniProt entry; tags and fusion partners are left off. A line that says so, or that is headed by a name, gives the form on record, which may keep a tag or linker. Residues count along the entry.
UniProt P35968, with tags, fused parts or gaps DEL940-989/E990V limits assumed: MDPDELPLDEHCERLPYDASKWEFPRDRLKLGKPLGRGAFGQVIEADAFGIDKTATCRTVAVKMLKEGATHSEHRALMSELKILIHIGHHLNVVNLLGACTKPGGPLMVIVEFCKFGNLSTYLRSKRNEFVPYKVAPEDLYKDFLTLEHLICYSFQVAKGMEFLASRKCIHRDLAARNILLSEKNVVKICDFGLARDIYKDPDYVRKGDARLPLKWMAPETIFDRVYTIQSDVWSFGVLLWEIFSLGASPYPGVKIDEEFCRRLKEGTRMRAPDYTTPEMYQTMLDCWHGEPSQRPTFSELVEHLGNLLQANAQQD
UniProt P09619, 33-1106 limits assumed: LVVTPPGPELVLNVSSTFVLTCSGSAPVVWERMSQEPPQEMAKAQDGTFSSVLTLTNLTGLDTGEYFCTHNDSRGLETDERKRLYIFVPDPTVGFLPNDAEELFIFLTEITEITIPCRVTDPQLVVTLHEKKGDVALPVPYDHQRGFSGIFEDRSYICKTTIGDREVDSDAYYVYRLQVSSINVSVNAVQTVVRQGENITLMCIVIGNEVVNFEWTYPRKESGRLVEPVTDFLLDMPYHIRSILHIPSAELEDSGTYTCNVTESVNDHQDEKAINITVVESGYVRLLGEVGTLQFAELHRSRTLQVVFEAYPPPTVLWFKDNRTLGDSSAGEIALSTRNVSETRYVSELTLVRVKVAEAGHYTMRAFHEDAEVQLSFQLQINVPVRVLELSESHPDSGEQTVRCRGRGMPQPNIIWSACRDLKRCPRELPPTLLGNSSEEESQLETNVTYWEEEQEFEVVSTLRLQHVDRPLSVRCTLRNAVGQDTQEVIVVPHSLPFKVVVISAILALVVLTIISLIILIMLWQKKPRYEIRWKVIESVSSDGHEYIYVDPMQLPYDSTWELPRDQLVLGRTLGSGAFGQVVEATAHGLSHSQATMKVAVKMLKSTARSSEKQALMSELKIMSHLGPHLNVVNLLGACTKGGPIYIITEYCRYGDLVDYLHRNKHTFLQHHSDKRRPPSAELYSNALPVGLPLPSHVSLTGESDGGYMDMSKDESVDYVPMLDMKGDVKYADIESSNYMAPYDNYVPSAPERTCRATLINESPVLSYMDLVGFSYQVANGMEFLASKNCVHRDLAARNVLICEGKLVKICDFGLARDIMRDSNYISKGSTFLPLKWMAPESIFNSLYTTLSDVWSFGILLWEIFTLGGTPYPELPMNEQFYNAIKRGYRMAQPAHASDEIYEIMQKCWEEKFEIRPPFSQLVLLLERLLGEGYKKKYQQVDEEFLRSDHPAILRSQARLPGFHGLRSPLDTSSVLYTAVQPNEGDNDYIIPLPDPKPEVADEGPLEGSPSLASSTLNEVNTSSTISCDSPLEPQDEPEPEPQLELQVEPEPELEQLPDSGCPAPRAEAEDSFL
UniProt P11362, 456-766 L457V/C488A/C584S limits assumed: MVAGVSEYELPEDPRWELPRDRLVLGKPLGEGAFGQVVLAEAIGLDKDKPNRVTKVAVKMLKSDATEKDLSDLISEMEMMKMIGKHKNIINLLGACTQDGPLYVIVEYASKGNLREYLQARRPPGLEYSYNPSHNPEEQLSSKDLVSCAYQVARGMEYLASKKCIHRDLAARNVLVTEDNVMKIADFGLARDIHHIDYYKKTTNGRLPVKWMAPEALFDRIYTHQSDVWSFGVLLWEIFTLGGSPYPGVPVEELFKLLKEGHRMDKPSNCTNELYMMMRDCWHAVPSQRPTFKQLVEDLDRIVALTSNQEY

[2] = target: PDGFRβ (Homo sapiens, UniProt P09619); assay: PAE-PDGFRβ Phosphorylation in PAE-PDGFRB Cells Assay; conditions: read-out: PAE PDGFR autophos IC50; PAE cells overexpressing human PDGFRβ
Protocol: This assay determines the ability of a test compound to inhibit the autophosphorylation of PDGFRβ in porcine aorta endothelial (PAE)-PDGFRβ cells. PAE cells that overexpress human PDGFRβ were used in this assay. The cells were cultured in Ham's F12 media supplemented with 10% fetal bovine serum (FBS) and 400 ug/ml G418. Twenty thousands cells were seeded in each well of a 96-well plate in 50 μL of growth media and allowed to attach for 6 hours at 37° C. Cells were then exposed to the starvation media (Ham's F12 media supplemented with 0.1% FBS) for 16 hours. After the starvation period was over, 10 μL of test agent in 5% DMSO in starvation media were added to the test wells and 10 μL of the vehicle (5% DMSO in starvation media) were added into the control wells. The final DMSO concentration in each well was 0.5%. Plates were incubated at 37° C. for 1 hour and the cells were then stimulated with 1 μg/mL PDGF-BB (R & D System) in the presence of 2 mM Na3VO4 for 8 minutes. The cells were washed once with 1 mm Na3VO4 in HBSS and lysed by adding 50 μL per well of lysis buffer. […] Phosphorylation status was assessed by spectrophotometer reading at 450 nm. IC50 values were calculated by curve fitting using a four-parameter analysis.

[3] = target: FGF-R1 (Homo sapiens, UniProt P11362, C488A/C584S/L457V); assay: Fibroblast Growth Factor (FGF-R) spectrophotometric assay; conditions: 1 μM compound
Text: The intracellular kinase domain of human FGF-R1 was expressed using the baculovirus vector expression system starting from the endogenous methionine residue 456 to glutamate 766, according to the residue numbering system of Mohammadi et al., Mol. Cell. Biol., 16, 977–989 (1996). In addition, the construct also has the following 3 amino acid substitutions: L457V, C488A, and C584S.
as §1, with “spectrophotometer. Assay conditions for phosphorylated VEGF-R2A50 (indicated as FLVK-P in the tables below) were the following: 1 mM PEP; 250 μM NADH; 50 units of LDH/mL; 20 units of PK/mL; 5 mM DTT; 5.1 mM poly(E4Y1); 1 mM ATP; and 25 mM MgCl2 in 200 mM HEPES, pH 7.5.” for “spectrophotometer.”, “software. […]” for “software.”

Cc1cc(C)nc(/C=C/c2n[nH]c3cc(Nc4ncccc4C(=O)NCC#CCO)ccc23)c1
FLVK Ki % inh @ 50 nM [1]: 23% | pIC50 [2]: 7.40 | FGF-P % inhibit @1 μM [3]: 56%

From patent US7053107B2, “Indazole compounds and pharmaceutical compositions for inhibiting protein kinases, and methods for their use” (Agouron Pharmaceuticals, Inc., priority 2002, dated 2006)
